Activity calls are given as the source filed them.
Key:
[1] = target: T1, Thyroid hormone receptor alpha (Homo sapiens) (UniProt P10827); assay: Antagonist activity at NR1A1 (unknown origin) at 1 uM
T1 sequence (whole entry): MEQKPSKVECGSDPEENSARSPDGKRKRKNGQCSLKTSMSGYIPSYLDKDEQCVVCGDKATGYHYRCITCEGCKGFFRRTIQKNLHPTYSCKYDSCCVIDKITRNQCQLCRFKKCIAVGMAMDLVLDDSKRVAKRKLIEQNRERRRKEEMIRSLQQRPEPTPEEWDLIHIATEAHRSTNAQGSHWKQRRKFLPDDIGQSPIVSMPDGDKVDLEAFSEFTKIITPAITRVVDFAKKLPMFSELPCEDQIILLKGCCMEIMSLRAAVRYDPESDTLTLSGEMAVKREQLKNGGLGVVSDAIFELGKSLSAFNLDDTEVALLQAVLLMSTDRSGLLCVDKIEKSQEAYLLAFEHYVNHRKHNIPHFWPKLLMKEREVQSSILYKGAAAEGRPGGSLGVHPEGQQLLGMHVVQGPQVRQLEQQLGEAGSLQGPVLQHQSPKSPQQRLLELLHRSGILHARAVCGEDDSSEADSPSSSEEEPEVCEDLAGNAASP

By UniProt entry, the sequences of proteins in these tests, tags left out. Where a name states a change or a piece, a line headed by the entry shows the natural chain unless it says otherwise.
UniProt P37231: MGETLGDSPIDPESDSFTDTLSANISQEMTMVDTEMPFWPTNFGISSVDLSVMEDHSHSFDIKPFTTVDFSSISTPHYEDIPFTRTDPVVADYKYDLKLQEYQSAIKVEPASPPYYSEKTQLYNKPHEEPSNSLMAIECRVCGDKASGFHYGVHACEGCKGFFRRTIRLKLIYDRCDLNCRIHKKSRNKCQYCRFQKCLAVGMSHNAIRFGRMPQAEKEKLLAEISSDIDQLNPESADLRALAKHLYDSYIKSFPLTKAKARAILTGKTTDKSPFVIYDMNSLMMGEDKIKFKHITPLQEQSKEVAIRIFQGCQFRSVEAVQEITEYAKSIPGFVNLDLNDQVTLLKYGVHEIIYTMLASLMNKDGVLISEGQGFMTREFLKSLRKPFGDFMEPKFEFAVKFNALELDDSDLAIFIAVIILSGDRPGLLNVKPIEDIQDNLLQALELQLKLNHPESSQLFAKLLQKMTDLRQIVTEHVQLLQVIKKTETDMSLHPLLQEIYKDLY
UniProt P43354, whole entry: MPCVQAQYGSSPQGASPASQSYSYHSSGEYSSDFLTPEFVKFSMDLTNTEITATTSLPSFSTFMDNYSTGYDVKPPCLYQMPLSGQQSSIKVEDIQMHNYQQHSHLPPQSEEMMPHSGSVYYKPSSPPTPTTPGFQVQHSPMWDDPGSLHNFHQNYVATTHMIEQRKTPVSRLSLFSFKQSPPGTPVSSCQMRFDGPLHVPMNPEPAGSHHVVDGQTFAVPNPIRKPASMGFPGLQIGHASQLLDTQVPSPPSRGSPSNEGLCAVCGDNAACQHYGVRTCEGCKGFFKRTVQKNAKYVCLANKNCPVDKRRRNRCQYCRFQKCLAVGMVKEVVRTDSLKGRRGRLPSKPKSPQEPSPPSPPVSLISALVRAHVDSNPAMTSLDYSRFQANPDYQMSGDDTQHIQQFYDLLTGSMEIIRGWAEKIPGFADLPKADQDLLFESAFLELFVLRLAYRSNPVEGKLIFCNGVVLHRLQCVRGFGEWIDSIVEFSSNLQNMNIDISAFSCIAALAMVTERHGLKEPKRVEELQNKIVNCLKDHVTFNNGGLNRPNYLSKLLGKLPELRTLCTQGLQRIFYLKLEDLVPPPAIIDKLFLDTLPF
UniProt P22736, whole entry: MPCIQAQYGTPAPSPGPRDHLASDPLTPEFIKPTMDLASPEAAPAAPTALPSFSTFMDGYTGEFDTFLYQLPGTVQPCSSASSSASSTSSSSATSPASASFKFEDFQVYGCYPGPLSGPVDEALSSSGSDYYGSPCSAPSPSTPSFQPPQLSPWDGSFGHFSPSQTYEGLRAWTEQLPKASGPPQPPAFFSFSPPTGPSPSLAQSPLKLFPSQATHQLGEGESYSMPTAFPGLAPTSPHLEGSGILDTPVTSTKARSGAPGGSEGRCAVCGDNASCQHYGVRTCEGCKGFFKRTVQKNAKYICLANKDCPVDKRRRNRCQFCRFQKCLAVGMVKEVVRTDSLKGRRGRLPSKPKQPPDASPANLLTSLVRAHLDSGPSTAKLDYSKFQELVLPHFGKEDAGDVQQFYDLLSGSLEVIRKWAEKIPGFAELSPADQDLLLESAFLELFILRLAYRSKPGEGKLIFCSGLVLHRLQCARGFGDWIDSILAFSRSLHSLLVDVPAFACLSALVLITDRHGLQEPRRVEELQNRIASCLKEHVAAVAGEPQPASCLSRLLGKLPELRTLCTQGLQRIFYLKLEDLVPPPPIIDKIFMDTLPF
UniProt Q13285, whole entry: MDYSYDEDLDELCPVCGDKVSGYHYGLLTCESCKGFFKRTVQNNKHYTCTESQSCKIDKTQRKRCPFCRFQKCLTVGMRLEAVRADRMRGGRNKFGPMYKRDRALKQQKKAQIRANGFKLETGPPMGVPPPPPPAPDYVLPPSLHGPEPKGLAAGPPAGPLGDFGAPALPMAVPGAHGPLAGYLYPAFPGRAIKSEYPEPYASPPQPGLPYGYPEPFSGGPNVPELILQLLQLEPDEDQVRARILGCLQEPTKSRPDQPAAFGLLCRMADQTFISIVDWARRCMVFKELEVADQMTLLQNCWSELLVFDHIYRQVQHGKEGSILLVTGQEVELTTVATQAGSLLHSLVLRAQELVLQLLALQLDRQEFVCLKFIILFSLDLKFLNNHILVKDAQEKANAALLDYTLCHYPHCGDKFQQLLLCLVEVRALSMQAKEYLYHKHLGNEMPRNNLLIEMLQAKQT

[2] = target: Peroxisome proliferator-activated receptor gamma (Homo sapiens) (UniProt P37231); assay: Agonist activity at NR1C3 (unknown origin) at 1 uM
[3] = target: Nuclear receptor subfamily 4 group A member 2 (Homo sapiens) (UniProt P43354); assay: Agonist activity at NR4A2 (unknown origin) at 1 uM
[4] = target: T2, Thyroid hormone receptor beta (Homo sapiens) (UniProt P10828); assay: Agonist activity at NR1A2 (unknown origin) at 1 uM
T2 sequence (whole entry): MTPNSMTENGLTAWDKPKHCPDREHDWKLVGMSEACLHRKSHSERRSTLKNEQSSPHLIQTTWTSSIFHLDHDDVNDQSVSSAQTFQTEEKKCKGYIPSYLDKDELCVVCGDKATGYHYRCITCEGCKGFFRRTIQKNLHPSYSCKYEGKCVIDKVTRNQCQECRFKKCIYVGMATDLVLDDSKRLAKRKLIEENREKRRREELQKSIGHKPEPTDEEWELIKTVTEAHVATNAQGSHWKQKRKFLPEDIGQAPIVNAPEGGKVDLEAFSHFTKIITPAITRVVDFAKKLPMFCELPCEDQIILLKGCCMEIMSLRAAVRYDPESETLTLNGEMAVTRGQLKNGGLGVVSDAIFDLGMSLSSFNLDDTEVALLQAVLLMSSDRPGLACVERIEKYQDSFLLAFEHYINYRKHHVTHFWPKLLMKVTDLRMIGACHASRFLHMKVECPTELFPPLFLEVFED

[5] = target: T3, Nuclear receptor ROR-beta (Homo sapiens) (UniProt Q92753); assay: Agonist activity at NR1F2 (unknown origin) at 1 uM
T3 sequence (whole entry): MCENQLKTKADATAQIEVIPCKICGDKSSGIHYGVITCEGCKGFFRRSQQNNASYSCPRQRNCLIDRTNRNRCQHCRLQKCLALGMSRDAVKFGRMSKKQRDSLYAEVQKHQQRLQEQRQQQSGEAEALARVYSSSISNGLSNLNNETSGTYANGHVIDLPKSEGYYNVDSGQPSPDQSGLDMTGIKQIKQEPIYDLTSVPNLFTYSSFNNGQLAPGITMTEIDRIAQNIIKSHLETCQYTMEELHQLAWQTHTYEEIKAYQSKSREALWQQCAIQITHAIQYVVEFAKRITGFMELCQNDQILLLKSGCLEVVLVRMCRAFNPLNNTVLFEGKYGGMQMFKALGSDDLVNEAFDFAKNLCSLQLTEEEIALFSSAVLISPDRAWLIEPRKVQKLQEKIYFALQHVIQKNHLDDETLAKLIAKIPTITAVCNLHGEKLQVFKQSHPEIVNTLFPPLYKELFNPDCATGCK

[6] = target: T4, Hepatocyte nuclear factor 4-alpha (Homo sapiens) (UniProt P41235); assay: Antagonist activity at NR2A1 (unknown origin) at 1 uM
T4 sequence (whole entry): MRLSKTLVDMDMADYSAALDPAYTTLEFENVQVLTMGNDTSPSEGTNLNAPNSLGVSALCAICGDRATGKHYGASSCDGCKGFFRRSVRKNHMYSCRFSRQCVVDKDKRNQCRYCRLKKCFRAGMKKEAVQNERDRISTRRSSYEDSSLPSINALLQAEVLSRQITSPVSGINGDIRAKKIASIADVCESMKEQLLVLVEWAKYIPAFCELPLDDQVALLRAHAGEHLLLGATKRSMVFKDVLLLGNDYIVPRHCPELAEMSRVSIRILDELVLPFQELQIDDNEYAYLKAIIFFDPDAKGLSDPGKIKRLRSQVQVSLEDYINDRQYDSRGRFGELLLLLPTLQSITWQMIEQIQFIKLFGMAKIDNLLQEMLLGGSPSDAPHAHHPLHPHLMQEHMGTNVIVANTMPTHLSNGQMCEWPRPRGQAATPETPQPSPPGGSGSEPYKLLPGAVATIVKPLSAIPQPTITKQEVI

[7] = target: Nuclear receptor subfamily 4immunitygroup A member 1 (Homo sapiens) (UniProt P22736); assay: Antagonist activity at NR4A1 (unknown origin) at 1 uM
[8] = target: Steroidogenic factor 1 (Homo sapiens) (UniProt Q13285); assay: Agonist activity at NR5A1 (unknown origin) at 1 uM
[9] = target: T5, Nuclear receptor ROR-alpha (Homo sapiens) (UniProt P35398); assay: Antagonist activity at NR1F1 (unknown origin) at 1 uM
T5 sequence (whole entry): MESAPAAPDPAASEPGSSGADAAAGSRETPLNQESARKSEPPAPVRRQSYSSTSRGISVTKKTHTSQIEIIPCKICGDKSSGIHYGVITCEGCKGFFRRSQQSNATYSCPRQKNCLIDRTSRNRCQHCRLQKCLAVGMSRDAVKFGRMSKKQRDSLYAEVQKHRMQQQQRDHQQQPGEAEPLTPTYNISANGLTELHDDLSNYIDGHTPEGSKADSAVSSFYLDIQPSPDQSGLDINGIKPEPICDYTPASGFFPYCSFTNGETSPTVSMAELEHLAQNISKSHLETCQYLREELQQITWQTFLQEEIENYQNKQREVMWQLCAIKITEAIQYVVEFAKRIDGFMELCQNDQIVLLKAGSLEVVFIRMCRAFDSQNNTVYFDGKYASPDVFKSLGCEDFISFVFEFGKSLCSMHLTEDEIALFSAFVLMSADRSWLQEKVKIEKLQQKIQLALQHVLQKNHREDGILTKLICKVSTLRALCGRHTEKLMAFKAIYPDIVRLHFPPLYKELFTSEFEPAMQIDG

Measured: Activity

O=C(O)[C@@H]1C[C@H]1c1nc(-c2ccccc2)c(-c2cc(C(F)(F)F)cc(C(F)(F)F)c2)o1 (racemic)
inactive: all assays above
